Screens (PubChem BioAssay)
ERp5 block: blocks human ERp5 reductase activity on insulin; Q15084; ERp5 insulin aggregation, absorbance 650 nm, 90 min; inhibition, % at 9.99 µM; 0.05% of 350,000 active; AID 651711;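 active = mean replicate inhibition above about 25%, with every replicate also reaching it, limit read from the data, passing the limit was not always enough; inconclusive = only one of those two criteria met; inactive = neither criterion met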
PDI inh: blocks human protein disulfide isomerase activity; P07237; PDI insulin aggregation turbidity, A650, 90 min; inhibition, % at 10 µM; 0.052% of 350,000 active; AID 588391;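 active = mean inhibition across replicates of 30% or more, whatever share of single replicates reach that level; inconclusive = mean inhibition below 30% while every single replicate reaches 30%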
S100A4 inh HTS: blocks human S100A4 binding to myosin IIA peptide | P26447 | S100A4/TAMRA-MyoIIA peptide fluorescence polarization | inhibition, % at 10.7 µM | 0.14% of 360,000 active;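 active = mean inhibition of at least 70% across replicates, with every replicate also reaching that level; inconclusive = mean inhibition reaches 70% but some replicates fall short; inactive = mean inhibition below 70%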
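Compound dosing: one dose per compound; test system: human S100A4 monomer with TAMRA-labelled myosin IIA peptide; probe or stimulus: TAMRA-labelled myosin IIA heavy-chain peptide probe, 5 nM; medium: HEPES buffer with Ca2+, pH 7.2; schedule: 5 min incubation before reading; benchmarks: neutral control DMSO, positive control TFP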
SIRT5 inh: sirtuin-5 (human) deacylase inhibition | Q9NXA8 | Purified SirT5, succinyl-peptide AMC, trypsin-coupled fluorescence | inhibition, % at 15 µM | 1.1% of 330,000 active | AID 652115; in the data active = inhibition above about 15%; inconclusive = no clear call, values can overlap the other calls
UUG fidelity: modulators of start codon recognition fidelity in yeast; AID 602363; hit rate 0.13% among 350,000; activity score, % at 18.7 µM; S. cerevisiae UUG-firefly luciferase reporter, luminescence/redox ratio;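 active = replicate mean at a twofold rise or more, about +100% in these data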;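 note: firefly luciferase made from a UUG start codon reports start codon fidelity; reporter light over untreated wells divided by growth signal over untreated wells; some hits fall short of that in this replicate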
FGF22 binding: binders of recombinant human FGF22 by thermal shift | Q9HCT0 | SYPRO orange fluorescence; percent of sucrose octasulfate shift, DMSO zero | activity (Tm shift, normalised), % at 9.99 µM | 1.5% of 340,000 active | AID 651658;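 active = mean Tm shift, scaled 0 neutral to 100 positive control, at about 1.3% or above, every replicate too, limit read from the data; inconclusive = no clear call, values can overlap the other calls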
Starred values were filed as active, the others as inactive; ? = inconclusive; . = no result. Shown are actives, neighbours in structure and some others; about 2.2% of the full set was active somewhere.

# | Molecule | ERp5 block | PDI inh | S100A4 inh HTS | SIRT5 inh | UUG fidelity | FGF22 binding
1 | C[C@@H]1CN([C@@H](C)CO)C(=O)Cc2cc(NS(=O)(=O)c3ccccc3)ccc2O[C@H]1CN(C)Cc1ccc(Cl)c(Cl)c1 | -2.0 | . | 7.0 | 20.5* | 9.5 | -0.5
2 | C[C@@H]1CN([C@@H](C)CO)C(=O)Cc2cc(NS(=O)(=O)c3ccc(Cl)cc3)ccc2O[C@H]1CN(C)Cc1ccc(Cl)c(Cl)c1 | -2.1 | . | 14.5 | 25.7* | -8.8 | 0.1
3 | C[C@@H]1CN([C@H](C)CO)C(=O)Cc2cc(NS(=O)(=O)c3ccc(Cl)cc3)ccc2O[C@H]1CN(C)Cc1ccc(Cl)c(Cl)c1 | 3.4 | . | 16.8 | 14.7 | -9.2 | 0.1
4 | C[C@H](CO)N1C[C@H](C)[C@@H](CN(C)Cc2ccc(Cl)c(Cl)c2)Oc2ccc(NS(=O)(=O)c3ccc(Cl)cc3)cc2CC1=O | 1.3 | . | -8.0 | 24.5* | 0.2 | 0.1
5 | O=C(O)CCN1CCc2ccccc21 | . | 0.7 | . | . | -3.3 | .
6 | C[N+](C)(C)CCN1CCc2ccccc21 | -0.3 | . | 0.9 | 21.7* | . | -0.4
7 | CCCOc1ccc(-c2nn(-c3ccccc3)cc2/C=C2\SC(N)=NC2=O)cc1C | -2.1 | -2.9 | 1.0 | -0.6 | -16.3 | 0.7
8 | COc1ccc(-c2nn(CCC(=O)O)cc2/C=C2\SC(N)=NC2=O)cc1OC | -2.9 | -8.2 | -2.5 | 27.9* | . | -0.1
9 | C[C@@H]1CCCCO[C@H](CN(C)C(=O)CCCN(C)C)[C@@H](C)CN([C@H](C)CO)C(=O)c2cc(NS(=O)(=O)c3ccccc3)ccc2O1 | 6.6 | . | -1.1 | -1.4 | -2.2 | -0.4
10 | C[C@@H]1CCCCO[C@@H](CN(C)C(=O)CCCN(C)C)[C@@H](C)CN([C@H](C)CO)C(=O)c2cc(NS(=O)(=O)c3ccccc3)ccc2O1 | 2.8 | . | 1.4 | 18.7* | 1.1 | -0.3

Following part.
# | Molecule | ERp5 block | PDI inh | S100A4 inh HTS | SIRT5 inh | UUG fidelity | FGF22 binding
11 | C[C@@H]1CCCCO[C@@H](CN(C)C(=O)CCCN(C)C)[C@H](C)CN([C@@H](C)CO)C(=O)c2cc(NS(=O)(=O)c3cccs3)ccc2O1 | -2.0 | . | 1.3 | -2.7 | 30.5 | 1.3*
12 | C[C@@H]1CCCCO[C@@H](CN(C)C(=O)CCCN(C)C)[C@@H](C)CN([C@H](C)CO)C(=O)c2cc(NS(=O)(=O)c3cccs3)ccc2O1 | -2.0 | . | 8.5 | -1.0 | -8.5 | 0.3
13 | CNC(=O)C[C@@H]1CC[C@@H]2[C@H](COc3ccc(NC(=O)C(C)C)cc3C(=O)N2C)O1 | . | . | . | . | 0.8 | -0.2
14 | C[C@@H](NC(=O)C[C@@H]1C[C@H]2c3cc(NC(=O)CC4CC4)ccc3O[C@H]2[C@@H](CO)O1)c1ccccc1 | 4.7 | . | 13.1 | 2.1 | 1.3 | 0.2
15 | C[C@H]1CN([C@@H](C)CO)S(=O)(=O)c2ccc(C3=CCCC3)cc2O[C@@H]1CN(C)Cc1cccnc1 | 2.2 | . | -22.4 | 2.9 | -2.2 | 0.0
16 | COc1ccc(S(=O)(=O)Nc2ccc3c(c2)C(=O)N([C@H](C)CO)C[C@H](C)[C@@H](CN(C)S(=O)(=O)c2cccs2)OCCCC[C@H](C)O3)cc1 | 0.8 | . | 10.2 | 1.6 | 5.7 | -0.3
17 | COc1ccc(S(=O)(=O)Nc2ccc3c(c2)C(=O)N([C@H](C)CO)C[C@H](C)[C@@H](CN(C)S(=O)(=O)c2cccs2)OCCCC[C@@H](C)O3)cc1 | -0.4 | . | 27.3 | 8.9 | 13.2 | -0.4
18 | COc1ccc(S(=O)(=O)Nc2ccc3c(c2)C(=O)N([C@@H](C)CO)C[C@H](C)[C@H](CN(C)S(=O)(=O)c2cccs2)OCCCC[C@H](C)O3)cc1 | 1.4 | . | -22.7 | 15.3* | 9.6 | -0.4
19 | COc1ccc(NC(=O)Nc2ccc3c(c2)C(=O)N([C@H](C)CO)C[C@H](C)[C@H](CN(C)S(=O)(=O)c2cccs2)OCCCC[C@@H](C)O3)cc1 | -1.3 | . | 15.4 | -3.7 | -8.3 | -0.4
20 | COc1ccc(NC(=O)Nc2ccc3c(c2)C(=O)N([C@H](C)CO)C[C@H](C)[C@@H](CN(C)S(=O)(=O)c2cccs2)OCCCC[C@@H](C)O3)cc1 | 1.3 | . | 10.0 | 19.2* | -7.2 | -0.6

Continued:
# | Molecule | ERp5 block | PDI inh | S100A4 inh HTS | SIRT5 inh | UUG fidelity | FGF22 binding
21 | COc1ccc(S(=O)(=O)Nc2ccc3c(c2)C(=O)N([C@H](C)CO)C[C@H](C)[C@H](CN(C)S(=O)(=O)c2cccs2)OCCCC[C@H](C)O3)cc1 | 5.0 | . | -5.8 | 17.9* | -2.7 | -0.1
22 | COc1ccc(C#Cc2cccc(-c3nc(C(=O)N[C@@H]4CCN(Cc5ccccc5)C4)cc4c3[C@H](CCO)N(S(=O)C(C)(C)C)C4)c2)cc1OC (stereo partly drawn) | 0.6 | . | -23.4 | 12.4 | . | 0.2
23 | Cc1ccc(S(=O)(=O)N[C@H]2CC[C@H](CCNC(=O)Cc3ccccn3)O[C@@H]2CO)cc1 | 6.3 | . | -3.1 | -0.2 | -2.7 | -0.1
24 | C(=C1c2ccccc2-c2ccccc21)c1ccccn1 | 1.5 | 3.4 | -58.8 | -1.3 | -20.3 | 43.2*
25 | C(=N\N=C\c1ccccn1)/c1ccccn1 | -10.8 | -1.0 | -5.5 | -3.5 | -17.7 | -0.2
26 | C[C@H](CO)N1C[C@H](C)[C@H](CN(C)C(=O)C2CC2)Oc2cc(-c3ccccc3F)ccc2S1(=O)=O | -3.1 | . | 2.9 | 7.4 | 22.7 | -0.3
27 | Cc1nc(-c2ccc(C(=O)Nc3ccc(F)cc3)cc2)cs1 | -1.9 | -4.7 | -2.7 | -1.1 | . | 43.2*
28 | CN1C(=O)c2cc(NC(=O)c3cccc(C(F)(F)F)c3)ccc2OC[C@H]2O[C@@H](CC(=O)O)CC[C@H]21 | 1.6 | . | -5.4 | 0.8 | . | 0.3
29 | Cc1noc(C)c1CSc1nc2sc(C)c(C)c2c(=O)n1C1CCCC1 | 3.1 | 7.2 | 1.8 | 34.9* | -11.1 | .
30 | COc1ccc(NC(=O)Nc2ccc3c(c2)C(=O)N([C@H](C)CO)C[C@H](C)[C@H](CN(C)S(=O)(=O)c2cccs2)OCCCC[C@H](C)O3)cc1 | -3.8 | . | 6.2 | 1.9 | -6.2 | 0.7

Some of these compounds in order of number of heavy atoms, highest first:
# | Molecule | ERp5 block | PDI inh | S100A4 inh HTS | SIRT5 inh | UUG fidelity | FGF22 binding
22 | COc1ccc(C#Cc2cccc(-c3nc(C(=O)N[C@@H]4CCN(Cc5ccccc5)C4)cc4c3[C@H](CCO)N(S(=O)C(C)(C)C)C4)c2)cc1OC (stereo partly drawn) | 0.6 | . | -23.4 | 12.4 | . | 0.2
28 | CN1C(=O)c2cc(NC(=O)c3cccc(C(F)(F)F)c3)ccc2OC[C@H]2O[C@@H](CC(=O)O)CC[C@H]21 | 1.6 | . | -5.4 | 0.8 | . | 0.3
23 | Cc1ccc(S(=O)(=O)N[C@H]2CC[C@H](CCNC(=O)Cc3ccccn3)O[C@@H]2CO)cc1 | 6.3 | . | -3.1 | -0.2 | -2.7 | -0.1
27 | Cc1nc(-c2ccc(C(=O)Nc3ccc(F)cc3)cc2)cs1 | -1.9 | -4.7 | -2.7 | -1.1 | . | 43.2*

Remaining list, next part.
# | Molecule | ERp5 block | PDI inh | S100A4 inh HTS | SIRT5 inh | UUG fidelity | FGF22 binding
31 | CC12C(=O)N(c3nccs3)C(=O)C1(C)C1CCC2O1 (stereo not drawn) | 3.4 | -2.6 | 6.1 | . | 4.3 | 43.1*
32 | O=C1C2C3CCC(O3)C2C(=O)N1c1nccs1 (stereo not drawn) | 0.8 | 8.6 | 4.0 | -2.1 | -13.6 | 0.2
33 | COc1ccc(NC(=O)Nc2cccc3c2O[C@@H](CN(C)S(C)(=O)=O)[C@H](C)CN([C@@H](C)CO)C3=O)cc1 | 1.0 | . | 11.7 | -0.8 | 4.3 | -0.4
34 | C[C@H](CO)N1C[C@H](C)[C@H](CN(C)Cc2cccc(C(F)(F)F)c2)OCc2ccccc2-c2ccccc2C1=O | 2.7 | . | -6.9 | 19.6* | . | -0.6
35 | C[C@@H]1CN([C@@H](C)CO)C(=O)c2ccccc2-c2ccccc2CO[C@H]1CN(C)Cc1ccccc1C(F)(F)F | 7.9 | . | ? | 27.6* | . | -0.8
36 | C[C@@H]1CN([C@H](C)CO)C(=O)c2ccccc2-c2ccccc2CO[C@@H]1CN(C)Cc1ccc(C(F)(F)F)cc1 | 0.0 | . | 5.7 | 5.1 | . | -0.5
37 | C[C@H](CO)N1C[C@H](C)[C@H](CN(C)Cc2ccc(C(F)(F)F)cc2)OCc2ccccc2-c2ccccc2C1=O | -2.7 | . | -5.6 | 13.6 | . | -0.4
